Assay results published in ChEMBL document CHEMBL1148435, “N,N-dialkyl-4-[(8-azabicyclo[3.2.1]-oct-3-ylidene)phenylmethyl]benzamides, potent, selective delta opioid agonists” (Bioorg Med Chem Lett, 2004).

Sequences of proteins named here, by UniProt entry; tags and fusion partners are left off.
UniProt P41143, whole entry: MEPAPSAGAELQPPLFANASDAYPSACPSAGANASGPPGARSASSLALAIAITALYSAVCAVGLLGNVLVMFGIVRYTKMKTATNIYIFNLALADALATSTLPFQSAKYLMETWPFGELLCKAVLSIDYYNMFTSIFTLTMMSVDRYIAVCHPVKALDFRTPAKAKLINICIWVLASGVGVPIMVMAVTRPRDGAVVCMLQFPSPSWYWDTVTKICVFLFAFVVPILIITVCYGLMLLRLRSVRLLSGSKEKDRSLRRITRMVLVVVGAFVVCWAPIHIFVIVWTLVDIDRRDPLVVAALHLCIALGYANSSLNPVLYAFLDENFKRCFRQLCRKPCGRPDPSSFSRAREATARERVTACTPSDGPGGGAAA

Molecular target: Delta-type opioid receptor (Homo sapiens, UniProt P41143)
Assay: Efficacy relative to stimulation of [35S]GTP-gamma-S, binding by SNC80 was calculated for human delta opioid receptor
Type: functional

| SMILES | Relative efficacy |
| --- | --- |
| C=CCN1CCC(N(c2ccccc2)c2ccc(C(=O)N(CC)CC)cc2)CC1 | 0.81 |
| CCN(CC)C(=O)c1ccc(N(c2ccccc2)C2CCNCC2)cc1 | 0.76 |
| C=CCN1[C@@H]2CC[C@H]1CC(N(c1ccccc1)c1ccc(C(=O)N(CC)CC)cc1)C2 (some centres undefined) | 1.07 |
| CCN(CC)C(=O)c1ccc(N(c2ccccc2)C2C[C@H]3CC[C@@H](C2)N3)cc1 (some centres undefined) | 0.95 |
